Experimental data published in PMC10864336.

Biological target: 3×FLAG-Tsc13 E91A (S. cerevisiae) (UniProt Q99190)
Test: co-IP; membrane fractions of yeast cells solubilized with 1% Triton X-100; immunoprecipitation with anti-FLAG M2 affinity gel at 4 °C overnight (50 mM Hepes/NaOH pH 7.5, 0.2 M sorbitol, 150 mM NaCl, 1 mM DTT); washed with buffer containing 0.1% Triton X-100; immunoblotting with anti-FLAG and …; band intensity of the immunoprecipitate relative to the input

co-precipitated quantity, percent of that with WT Tsc13: 21%
Substance: Elo3-6×HA (from UniProt P40319 1-345) (enzyme)
